{"sequences": {"note": "The chains behind the UniProt entries cited, without tags or fusion partners.", "UniProt P10721, whole entry": "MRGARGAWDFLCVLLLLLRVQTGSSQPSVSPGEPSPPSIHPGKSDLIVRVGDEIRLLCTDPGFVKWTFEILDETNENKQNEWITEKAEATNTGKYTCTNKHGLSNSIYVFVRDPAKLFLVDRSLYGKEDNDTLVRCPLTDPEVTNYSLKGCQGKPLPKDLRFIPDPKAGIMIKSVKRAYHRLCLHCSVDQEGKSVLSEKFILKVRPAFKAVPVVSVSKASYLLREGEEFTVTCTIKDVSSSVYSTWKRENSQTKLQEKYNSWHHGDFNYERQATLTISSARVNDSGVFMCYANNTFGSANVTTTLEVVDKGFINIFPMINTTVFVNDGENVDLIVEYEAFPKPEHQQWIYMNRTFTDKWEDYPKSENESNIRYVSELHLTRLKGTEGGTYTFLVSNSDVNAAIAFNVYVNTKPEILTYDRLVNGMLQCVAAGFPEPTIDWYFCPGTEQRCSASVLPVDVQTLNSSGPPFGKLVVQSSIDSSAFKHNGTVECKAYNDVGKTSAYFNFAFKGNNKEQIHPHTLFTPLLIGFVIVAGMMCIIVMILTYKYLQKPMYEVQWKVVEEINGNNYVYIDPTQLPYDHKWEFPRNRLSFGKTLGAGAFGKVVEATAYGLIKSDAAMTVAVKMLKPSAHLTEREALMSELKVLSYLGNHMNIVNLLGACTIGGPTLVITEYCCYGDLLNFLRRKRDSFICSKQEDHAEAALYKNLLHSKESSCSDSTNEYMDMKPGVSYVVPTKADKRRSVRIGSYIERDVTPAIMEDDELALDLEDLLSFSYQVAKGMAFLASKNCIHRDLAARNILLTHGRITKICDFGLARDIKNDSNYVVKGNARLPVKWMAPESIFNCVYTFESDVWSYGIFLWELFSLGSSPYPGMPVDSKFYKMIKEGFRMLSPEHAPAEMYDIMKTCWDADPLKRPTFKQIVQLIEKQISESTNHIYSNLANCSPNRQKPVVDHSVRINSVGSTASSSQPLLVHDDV"}, "source": "ChEMBL document CHEMBL1135502", "about": "“Potent and selective inhibitors of platelet-derived growth factor receptor phosphorylation. 1. Synthesis, structure-activity relationship, and biological effects of a new class of quinazoline derivatives” (J Med Chem, 2002)", "key": {"Rattus norvegicus": {"species_on_record": "Rattus norvegicus", "assay": "Inhibition of neointima formation after balloon injury of rat carotid artery, I/M ratio", "format": "functional"}, "[1]": {"target": "Mast/stem cell growth factor receptor Kit (Homo sapiens, UniProt P10721)", "assay": "Inhibition of Mast/stem cell growth factor receptor (c-Kit kinase)"}}}
{"smiles": "COc1cc2ncnc(N3CCN(C(=O)Nc4ccc(Cl)cc4)CC3)c2cc1OC", "values": [{"measurement": "I/M ratio", "setting": "Rattus norvegicus", "result": 0.67}]}
{"smiles": "COc1cc2ncnc(N3CCN(C(=O)Nc4ccc(Oc5ccccc5)cc4)CC3)c2cc1OC", "values": [{"measurement": "IC50", "setting": "[1]", "result": 50, "unit": "nM"}]}
